“Also recorded” adds a separate entry of the source.
Key:
Type in all cases: in vivo
C. elegans CL2120 [1] = experiment: Paralysis assay in C. elegans CL2120; conditions: for Mean fraction of paralyzed: Aβ42 or isoD7-Aβ42 40 μM, HAEE 4 mM, 25°C, mean ± SD of 3 experiments
Protocol: (§1) C. elegans CL2120 (dvIs14 [(pCL12) unc-54::beta 1-42 +(pCL26) mtl-2::GFP]) and C. elegans CL2122 (dvIs15 [(pPD30.38) unc-54(vector) + (pCL26) mtl-2::GFP]) strains were obtained from the Caenorhabditis Genetics Center. The worms were handled according to standard methods without FUDR [18]. E. coli OP50 bacteria were grown overnight in Luria-Bertani broth and 50µl were spread atop NGM or NGMZn plates. NGMZn has 20μM ZnSO4. Seeded plates were incubated at 30°C for ~16 hours and then for 1-2 hours at 15 or 25°C before worms were transferred. Lifespan and paralysis experiments (see below) were performed at 25°C for enhanced expression of Aβ. This temperature is standard when studying the effects of Aβ on C. elegans CL2120 strain [19].
Then, nematodes were transferred to Petri plates with NGM or NGMZn and OP-50, placed in a temperature-controlled incubator at 25°C. On the next day, worms were transferred onto similar media with a bacterial substrate and paralyzed nematodes were counted at equal time intervals. […] For the paralysis experiments, we chose the days where we could clearly distinguish between paralysis and mortality. This conformed to the third and fourth days of their adult life. While at least three repeated trials were conducted, each experiment was performed using at least 100 worms. Details regarding repeated experiments and amounts of animals used for experiments are summarized in Supplementary Table 2. Mean fraction of paralyzed worms was compared between groups with two-way ANOVA, accounting for age and treatment. Post-hoc analysis was performed with the Tukey test. Statistical analysis was performed with GraphPad Prism 9.1 software.

C. elegans CL2122 = experiment: Lifespan analysis, C. elegans CL2122 (transgenic control); conditions: for Mean survival: Aβ42 or isoD7-Aβ42 40 μM, HAEE 4 mM; for Mean survival / Effect on lifespan: 25°C; for Mean survival / Mean increase/decrease in lifespan: mean ± SD of 3 experiments; for Increase/decrease in lifespan: vs control of same repeat
Protocol: as §1
(§2) Nematodes were purified from unwanted microflora by the alkaline hypochlorite method, grown to the L4 stage at 15°C on NGM plates with bacterial lawn. […] Further, all contents were transferred to Petri plates with NGM or NGMZn with OP50 and placed in a temperature-controlled incubator at 25°C. Next day, worms were transferred onto similar media with a bacterial substrate and the lifespan was determined at 25°C (Supplementary Tables 3, 4).
(§3) Lifespans were monitored at 25°C as described previously. All experiments were repeated at least three times and ≈130 worms were used for each experiment. Details regarding repeated experiments and amounts of animals used for experiments are summarized in Supplementary Tables 3, 4. In all cases, stage L4 worms were used at t = 0 for lifespan analyses and worms were transferred every other day to new agar plates. […] Escaped animals or animals with internal hatching were not included in lifespan calculation. Data was analyzed and Boltzmann sigmoid survival curves generated using the SciDAVis statistical analysis software package. Mean lifespans were compared in Microsoft Excel using the Student t test, applying one-tailed distribution and two-sample equal variance. All lifespan plots represent the composites of all independent experiments tabulated in Supplementary Tables 3, 4. Mean percentage change ±SD of lifespan after treatment, relative to untreated control are indicated in each graph in the same color as the curve.

C. elegans CL2120 [2] = experiment: Amyloid load by X-34 staining in C. elegans CL2120
Protocol: as §1, §2
Post-hoc analysis was performed with the Tukey test.
Figure 2.

C. elegans CL2120 [3] = experiment: Lifespan analysis, C. elegans CL2120; conditions: for Mean survival: Aβ42 or isoD7-Aβ42 40 μM, HAEE 4 mM; for Mean survival / Effect on lifespan: 25°C; for Increase/decrease in lifespan: vs control of same repeat
Protocol: as §1, §2, §3

[4] = A4 (4 days old), NGM (no Zn), replicate 3
[5] = CL2120, NGM (no Zn), replicate 1
[6] = CL2120, NGM (no Zn), replicate 2
[7] = CL2120, NGM (no Zn), replicate 3
[8] = CL2122, NGM (no Zn), replicate 1
[9] = CL2122, NGM (no Zn), replicate 2
[10] = CL2122, NGM (no Zn), replicate 3

Compound CC(=O)N[C@@H](Cc1c[nH]cn1)C(=O)N[C@@H](C)C(=O)N[C@@H](CCC(=O)O)C(=O)N[C@@H](CCC(=O)O)C(N)=O [HAEE, Ac-HAEE-NH2] has a Fraction of paralyzed (C. elegans CL2120 [1]; [4]) of 10.8% and a Mean survival (C. elegans CL2122; CL2122, NGMZn (ZnSO4 20 μM)) of 8.93 ± 0.15 days.

For “DAEFRHDSGYEVHHQKL VFFAEDVGSNKGAIIGLMVGGVVIA [Aβ42, synthetic beta-amyloid 1-42 peptide]”, the “Mean fraction of paralyzed” value (C. elegans CL2120 [1]; A3 (3 days old), NGM (no Zn)) was 6.2±0.51%, the Fraction of paralyzed (C. elegans CL2120 [1]; A3 (3 days old), NGM (no Zn), replicate 1) was 5.6% and the Fraction of paralyzed (C. elegans CL2120 [1]; A3 (3 days old), NGM (no Zn), replicate 2) was 6.3%. For the same compound, the Fraction of paralyzed (C. elegans CL2120 [1]; A3 (3 days old), NGM (no Zn), replicate 3) was 6.6%, the “Mean fraction of paralyzed” value (C. elegans CL2120 [1]; A3 (3 days old), NGMZn (ZnSO4 20 μM)) was 4.9±0.4% and the Fraction of paralyzed (C. elegans CL2120 [1]; A3 (3 days old), NGMZn, replicate 1) was 5.3%. For the same compound, the Fraction of paralyzed (C. elegans CL2120 [1]; A3 (3 days old), NGMZn, replicate 2) was 4.8%, the Fraction of paralyzed (C. elegans CL2120 [1]; A3 (3 days old), NGMZn, replicate 3) was 4.5% and the “Mean fraction of paralyzed” value (C. elegans CL2120 [1]; A4 (4 days old), NGM (no Zn)) was 10.9±0.66%. It also gave a Fraction of paralyzed (C. elegans CL2120 [1]; A4 (4 days old), NGM (no Zn), replicate 1) of 10.8%, a Fraction of paralyzed (C. elegans CL2120 [1]; A4 (4 days old), NGM (no Zn), replicate 2) of 11.6% and a Fraction of paralyzed (C. elegans CL2120 [1]; [4]) of 10.3%. For the same compound, the “Mean fraction of paralyzed” value (C. elegans CL2120 [1]; A4 (4 days old), NGMZn (ZnSO4 20 μM)) was 9.6±0.47%, the Fraction of paralyzed (C. elegans CL2120 [1]; A4 (4 days old), NGMZn, replicate 1) was 9.4% and the Fraction of paralyzed (C. elegans CL2120 [1]; A4 (4 days old), NGMZn, replicate 2) was 10.1%. The Fraction of paralyzed (C. elegans CL2120 [1]; A4 (4 days old), NGMZn, replicate 3) was 9.2%, the “Effect on paralysis with Zn2+” value (C. elegans CL2120 [1]; peptide 40 μM + Zn2+, NGMZn) was “not observed; also recorded: not detected” and the “Amyloid load, Aβ42 with Zn2+” value (C. elegans CL2120 [2]; Aβ42 40 µM, NGMZn) was “did not show any increase in the amyloid load; also recorded: not detected”. The “Amyloid load, without Zn2+” value (C. elegans CL2120 [2]; peptide 40 µM, NGM without Zn2+) was “did not show any increase in the amyloid load”, the Mean survival (C. elegans CL2120 [3]; CL2120, NGM (no Zn), mean ± SD of 3 experiments) was 8.8 ± 0.26 days and the 50% survival (C. elegans CL2120 [3]; [5]) was 8.9 days. For the same compound, the 50% survival (C. elegans CL2120 [3]; [6]) was 9.0 days, the 50% survival (C. elegans CL2120 [3]; [7]) was 8.5 days and the “Mean increase/decrease in lifespan” value (C. elegans CL2120 [3]; CL2120, NGM (no Zn), vs control NGM, mean ± SD of 3 experiments) was 1.54±1.78%. It also gave an Increase/decrease in lifespan (C. elegans CL2120 [3]; [5]) of 3.49%, an Increase/decrease in lifespan (C. elegans CL2120 [3]; [6]) of 1.12% and an Increase/decrease in lifespan (C. elegans CL2120 [3]; [7]) of 0%. For the same compound, the “Effect on lifespan” value (C. elegans CL2120 [3]; CL2120, NGM, without Zn2+) was “does not affect; also recorded: did not affect the mean lifespan”, the Mean survival (C. elegans CL2120 [3]; CL2120, NGMZn (ZnSO4 20 μM), mean ± SD of 3 (isoD7-Aβ42: 5) experiments) was 8.57 ± 0.4 days and the 50% survival (C. elegans CL2120 [3]; CL2120, NGMZn, replicate 1) was 8.5 days. The 50% survival (C. elegans CL2120 [3]; CL2120, NGMZn, replicate 2) was 8.2 days, the 50% survival (C. elegans CL2120 [3]; CL2120, NGMZn, replicate 3) was 9.0 days and the “Mean increase/decrease in lifespan” value (C. elegans CL2120 [3]; CL2120, NGMZn, vs control NGMZn, mean ± SD of 3 (isoD7-Aβ42: 5) experiments) was -1.48±4.09%. It also gave an Increase/decrease in lifespan (C. elegans CL2120 [3]; CL2120, NGMZn, replicate 1) of 2.41%, an Increase/decrease in lifespan (C. elegans CL2120 [3]; CL2120, NGMZn, replicate 2) of -5.75% and an Increase/decrease in lifespan (C. elegans CL2120 [3]; CL2120, NGMZn, replicate 3) of -1.10%. For the same compound, the “Effect on lifespan” value (C. elegans CL2120 [3]; CL2120, NGMZn, with Zn2+ (20 μM)) was “does not affect; also recorded: did not affect the mean lifespan; also recorded: not detected”, the Mean survival (C. elegans CL2122; CL2122, NGM (no Zn)) was 8.93 ± 0.42 days and the 50% survival (C. elegans CL2122; [8]) was 9.4 days. The 50% survival (C. elegans CL2122; [9]) was 8.6 days, the 50% survival (C. elegans CL2122; [10]) was 8.8 days and the “Mean increase/decrease in lifespan” value (C. elegans CL2122; CL2122, NGM (no Zn), vs control NGM) was -1.50±3.36%. The Increase/decrease in lifespan (C. elegans CL2122; [8]) was 2.17%, the Increase/decrease in lifespan (C. elegans CL2122; [9]) was -4.44% and the Increase/decrease in lifespan (C. elegans CL2122; [10]) was -2.22%. For the same compound, the “Effect on lifespan” value (C. elegans CL2122; CL2122, NGM, without Zn2+) was “does not affect; also recorded: did not affect the mean lifespan”, the Mean survival (C. elegans CL2122; CL2122, NGMZn (ZnSO4 20 μM)) was 8.97 ± 0.15 days and the 50% survival (C. elegans CL2122; CL2122, NGMZn, replicate 1) was 9.1 days. The 50% survival (C. elegans CL2122; CL2122, NGMZn, replicate 2) was 8.8 days, the 50% survival (C. elegans CL2122; CL2122, NGMZn, replicate 3) was 9.0 days and the “Mean increase/decrease in lifespan” value (C. elegans CL2122; CL2122, NGMZn, vs control NGMZn) was -0.68±3.9%. It also gave an Increase/decrease in lifespan (C. elegans CL2122; CL2122, NGMZn, replicate 1) of 3.41%, an Increase/decrease in lifespan (C. elegans CL2122; CL2122, NGMZn, replicate 2) of -4.35% and an Increase/decrease in lifespan (C. elegans CL2122; CL2122, NGMZn, replicate 3) of -1.10%. For the same compound, the “Effect on lifespan” value (C. elegans CL2122; CL2122, NGMZn, with Zn2+ (20 μM)) was “does not affect; also recorded: did not affect the mean lifespan”.

Source: article PMC10017155, “Zn-dependent β-amyloid Aggregation and its Reversal by the Tetrapeptide HAEE” (Aging and Disease, 2023)
